# This is a selection; strong and weak results do not stand in their true shares. Active and inactive are the calls of the source.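 How the source made its calls: active means a compound raising TNF-alpha-driven VCAM-1 surface staining, with its hit status upheld on visual or statistical review; inactive means the rest, including hits rejected on review.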
# Assay: boosters of cytokine-driven VCAM-1 levels – cell-based, plate reader, pooled HUVEC, TNFa stimulus (AID 455);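 further: 0% = TNFa plus DMSO wells and 100% = a visually confirmed top hit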
# Settings: HUVEC TNFa-induced VCAM-1 immunofluorescence, hits give high values, 100% set by best visually verified hit,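 tested at 5 µM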
row,SMILES,augmentation
1,Cc1nn(-c2ccccc2)c2c1P(=O)(N1CCOCC1)N(C)C(c1ccccc1)=N2 (stereo not given),inactive: 0%
2,CCOP1(=S)c2c(C)nn(CCC#N)c2N=C(c2ccccc2F)N1C (stereo not given),inactive: 0%
3,O=C(COc1ccccc1)OC1CN2CCC1CC2 (stereo not given),inactive: 0%
4,COP1(=S)c2c(C)nn(CCC#N)c2N=C(c2ccc(F)cc2)N1C (stereo not given),inactive: 0%
5,O=P(Nc1nccs1)(c1ccccc1)c1ccccc1,inactive: 0%

# Source: PubChem BioAssay AID455 (Sanford-Burnham Center for Chemical Genomics, 2006)
